Laboratory results taken from US6685617B1, “Inhibitors of α4β1 mediated cell adhesion” (Pharmacia & Upjohn Company, priority 1998, dated 2004).

Protein sequences, listed by entry. Tags and fused reporters are not part of them. Residues count along the entry.
UniProt P05556, 21-798 limits assumed: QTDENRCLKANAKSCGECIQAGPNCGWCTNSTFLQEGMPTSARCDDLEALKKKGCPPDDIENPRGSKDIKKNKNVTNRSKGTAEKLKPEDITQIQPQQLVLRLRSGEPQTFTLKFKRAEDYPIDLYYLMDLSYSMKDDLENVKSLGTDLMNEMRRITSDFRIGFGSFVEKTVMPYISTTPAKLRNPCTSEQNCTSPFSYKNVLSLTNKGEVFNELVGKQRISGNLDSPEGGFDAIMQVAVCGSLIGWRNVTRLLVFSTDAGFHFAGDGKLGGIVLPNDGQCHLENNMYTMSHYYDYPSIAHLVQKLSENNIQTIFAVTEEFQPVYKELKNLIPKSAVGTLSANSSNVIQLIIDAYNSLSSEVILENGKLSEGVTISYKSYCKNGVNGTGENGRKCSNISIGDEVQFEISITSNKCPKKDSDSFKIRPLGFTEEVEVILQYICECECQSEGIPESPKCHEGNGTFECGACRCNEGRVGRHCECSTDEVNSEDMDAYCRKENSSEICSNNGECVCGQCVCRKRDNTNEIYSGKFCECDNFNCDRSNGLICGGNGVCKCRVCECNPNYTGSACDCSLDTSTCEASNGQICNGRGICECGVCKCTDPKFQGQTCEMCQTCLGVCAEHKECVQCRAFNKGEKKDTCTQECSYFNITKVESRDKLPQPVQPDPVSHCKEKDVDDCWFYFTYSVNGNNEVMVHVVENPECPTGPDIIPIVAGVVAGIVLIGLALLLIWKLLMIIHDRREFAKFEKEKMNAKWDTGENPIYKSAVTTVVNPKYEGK
UniProt P13612, 34-1032 limits assumed: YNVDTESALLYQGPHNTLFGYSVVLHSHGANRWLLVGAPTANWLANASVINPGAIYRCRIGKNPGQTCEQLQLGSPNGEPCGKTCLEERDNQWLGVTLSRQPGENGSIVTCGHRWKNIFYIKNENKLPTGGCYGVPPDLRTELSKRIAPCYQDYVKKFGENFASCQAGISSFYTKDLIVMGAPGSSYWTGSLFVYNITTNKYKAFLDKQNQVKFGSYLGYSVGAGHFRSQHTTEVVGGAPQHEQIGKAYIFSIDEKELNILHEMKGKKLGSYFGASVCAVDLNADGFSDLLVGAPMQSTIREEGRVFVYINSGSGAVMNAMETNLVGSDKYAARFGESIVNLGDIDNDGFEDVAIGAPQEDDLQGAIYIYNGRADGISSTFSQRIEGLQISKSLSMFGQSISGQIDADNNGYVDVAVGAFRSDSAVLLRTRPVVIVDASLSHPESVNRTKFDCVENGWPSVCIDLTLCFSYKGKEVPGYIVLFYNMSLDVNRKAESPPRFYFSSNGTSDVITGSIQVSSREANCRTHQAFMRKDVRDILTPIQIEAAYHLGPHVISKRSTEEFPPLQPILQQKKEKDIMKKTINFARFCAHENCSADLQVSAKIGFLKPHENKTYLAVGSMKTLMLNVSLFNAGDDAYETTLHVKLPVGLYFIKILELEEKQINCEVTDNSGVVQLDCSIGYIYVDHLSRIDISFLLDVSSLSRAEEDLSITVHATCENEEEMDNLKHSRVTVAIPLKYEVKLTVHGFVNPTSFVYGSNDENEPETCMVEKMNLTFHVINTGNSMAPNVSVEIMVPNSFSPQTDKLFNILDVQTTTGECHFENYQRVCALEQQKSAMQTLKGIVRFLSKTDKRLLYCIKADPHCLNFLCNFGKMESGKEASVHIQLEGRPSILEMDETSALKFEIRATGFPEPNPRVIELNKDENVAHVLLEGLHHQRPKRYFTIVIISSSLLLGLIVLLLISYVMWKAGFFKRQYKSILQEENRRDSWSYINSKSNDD

Key:
[1] = target: α4β1 integrin (Jurkat T-cell adhesion to IL-1 stimulated endothelial cell monolayers) (Homo sapiens, UniProt P05556+P13612); test: Jurkat-endothelial cell adhesion assay (Jurkat EC); settings: read-out: JK/EC (Jurkat EC Assay IC50 value range); Jurkat cells on IL-1 stimulated human umbilical vein endothelial cells
Experimental: Jurkat-endothelial Cell Adhesion Assay:
The following assay established the activity of the present compounds in inhibiting β1-mediated cell adhesion in a representative in vitro system. This assay measures the adhesive interactions of a T-cell line, Jurkat, known to express the α4β1 integrin, to endothelial monolayers in the presence of test compounds. The test compounds were added in increasing concentrations to T-cells and then the T-cell compound mixture was added to IL-1 stimulated endothelial cell monolayers. The plates were incubated, washed and the percentage of attached cells was quantitated. […]
Confluent endothelial monolayers, grown in 96-well tissue culture plates, were stimulated for 4 hr. at 37° C. with 0.1 ng/ml (˜50 U/ml) recombinant IL-1 (Amgen, Thousand Oaks, Calif.). […] Following this incubation, the monolayers were washed twice with PBS containing 1 mM calcium chloride and 1 mM magnesium chloride and the plates were read using a Millipore Cytofluor 2300 (Marlboro, Mass.). Fluorescence in each well was measured as Arbitrary Fluorescence Units and percent adhesion in the absence of compound was adjusted to 100% and the % adhesion in the presence of compound was calculated. Monolayers were also fixed in 3% paraformaldehyde and evaluated microscopically to verify the adhesion. […]

[2] = target: α4β1 integrin (Jurkat cell adhesion to immobilized CS-1 derived peptide CLHPGEILDVPST) (Homo sapiens, UniProt P05556+P13612); test: Jurkat-CS-1 assay; settings: read-out: JK/CS-1 (Jurkat CS-1 Assay IC50 value range); Jurkat cells on CS-1 peptide coated plates
Experimental: The CS-1 derived peptide, CLHPGEILDVPST, and the scrambled control peptide, CLHGPIELVSDPT, were synthesized on a Beckman 990 synthesizer using t-Boc methodology. The peptides were immobilized onto microtiter plates using the heterobifunctional crosslinker 3-(2-pyridyldithio)propionic acid N-hydroxysuccinimide ester (SPDP) as reported by Pierschbacher et al., Proc. Natl. Acad. USA, 80:1224-1227 (1983). Microtiter plates were coated with 20 μg/ml HSA for 2 hr. at room temperature, washed once with PBS and derivatized with 10 μg/ml SPDP for 1 hr. After washing, 100 μl of a 100 μg/ml cysteine containing peptide solution which had been recently dissolved was added to the wells and allowed to crosslink to the plates overnight at 4° C. Unbound peptide was removed from plates by washing with PBS. To block non-reacted sites, the plates are coated with 100 μl of a 2.5 mg/ml BSA solution in PBS for 1 hr. at 37° C. 100 μl of Jurkat cells (2.5×10^6 cells/ml) in DMEM plus BSA (2.5 mg/ml) was mixed with an appropriate concentration of the compound to be tested and the mixture was added to peptide coated dishes and incubated for 1 hr. at 37° C. Generally 100, 20, 5 and 1.25 μM concentrations of the compound were tested.
Following this incubation the plates were washed once with PBS and the attached cells were fixed with 3% paraformaldehyde in PBS and stained with 0.5% toluidine blue in 3.7% formaldehyde. The cells were stained overnight at room temperature and the optical density at 590 nm of toluidine blue stained cells was determined using a vertical pathway spectrophotometer to quantitate attachment (VMAX Kinetic Microplate Reader, Molecular Devices, Menlo Park, Calif.). This procedure is a modification of a previously published method (Cardarelli et al, J. Biol. Chem., 269:18668-18673 (1994) and Cardarelli et al, Proc. Natl. Acad. Sci. USA, 83:2647-2651 (1986)).

[3] = system: VLA-4 integrin-dependent eosinophil infiltration; test: Dextran pleurisy model (intrapleural dextran, pleural leukocyte infiltration); settings: dose 50 × 2 iv; mouse, 4 h after intrapleural dextran
Experimental: Animals, Housing and Viral Testing:
C57BL/6 mice (Jackson, Bar Harbor, Me.), 6-8 weeks old, weighing 20-25 g were used throughout. All mice were acclimated for at least 7-14 days after arrival and maintained under controlled temperature (20-22° C.) and a 12 hr daily light cycle (6.00 A.M.-6.00 P.M.). Mice were housed in laminar flow racks and checked biweekly for viral infections (mouse hepatitis virus, minute virus of mice, rodent orphan parvovirus, Sendai) with kits obtained from Oreganon Teknika (Durham, N.C.) using established enzyme-linked immunoabsorbent assays. Mice testing positive for any of the above were omitted from the study. […]
Quantitation of Pleural Inflammatory Leukocyte Responses: […]
The pleural cavities of mice receiving either no intrapleural injection, or saline were washed and the cells counted in the same way to estimate baseline or saline-induced pleural leukocyte counts respectively. […]
The following compounds were tested for their inhibitory effects on dextran-induced leukocyte infiltration: Examples 3, 8, 9, 10, 12, 16, 37, 62, 66, 67, 99, 100, 111, 113, 115, 127, 131, 141, 184, 185, 192, PBS (saline) was administered iv. as a control. Inhibition of eosinophil infiltration, which was suppressed by anti-alpha-4 Mab (PS/2, 50%), was used as a readout of VLA-4 antagonist activity of the compounds tested. […]

For O=C(O)c1cncc(C(=O)N2CCCC[C@@H]2C(=O)N[C@@H](Cc2ccc(NC(=O)c3c(Cl)cccc3Cl)cc2)C(=O)O)c1, the IC50 [1] was under 250 nM and the IC50 [2] was 50 to 750 nM.

Work on O=C(O)CCC(=O)N1CCCC[C@@H]1C(=O)N[C@@H](Cc1ccc(NC(=O)c2c(Cl)cccc2Cl)cc1)C(=O)O yielded an IC50 [2] of 50 to 750 nM.

With O=C(O)c1cncc(C(=O)N2CCCC[C@H]2C(=O)N[C@@H](Cc2ccc(NC(=O)c3c(Cl)cccc3Cl)cc2)C(=O)O)c1 [Example 172, 5-[[(2S)-2-[[[(1S)-1-Carboxy-2-[4-[(2,6-dichlorobenzoyl)amino]phenyl]ethyl]amino]carbonyl]-1-piperidinyl]carbonyl]-3-pyridinecarboxylic Acid] the IC50 [2] was under 50 nM and the “% Inhibition of Eosinophil infiltration (Eos)” value [3] was “B (B: 20-39)”.
